# Values quoted from earlier work as cited in patent US20140248635A1, “ALPHA-TUBULIN […]” (University of Georgia Research Foundation, Inc., priority 2010, published 2014).
# Molecular target: T1, HDAC6 (Homo sapiens, UniProt Q9UBN7)
# T1 sequence (Q9UBN7 1-1215): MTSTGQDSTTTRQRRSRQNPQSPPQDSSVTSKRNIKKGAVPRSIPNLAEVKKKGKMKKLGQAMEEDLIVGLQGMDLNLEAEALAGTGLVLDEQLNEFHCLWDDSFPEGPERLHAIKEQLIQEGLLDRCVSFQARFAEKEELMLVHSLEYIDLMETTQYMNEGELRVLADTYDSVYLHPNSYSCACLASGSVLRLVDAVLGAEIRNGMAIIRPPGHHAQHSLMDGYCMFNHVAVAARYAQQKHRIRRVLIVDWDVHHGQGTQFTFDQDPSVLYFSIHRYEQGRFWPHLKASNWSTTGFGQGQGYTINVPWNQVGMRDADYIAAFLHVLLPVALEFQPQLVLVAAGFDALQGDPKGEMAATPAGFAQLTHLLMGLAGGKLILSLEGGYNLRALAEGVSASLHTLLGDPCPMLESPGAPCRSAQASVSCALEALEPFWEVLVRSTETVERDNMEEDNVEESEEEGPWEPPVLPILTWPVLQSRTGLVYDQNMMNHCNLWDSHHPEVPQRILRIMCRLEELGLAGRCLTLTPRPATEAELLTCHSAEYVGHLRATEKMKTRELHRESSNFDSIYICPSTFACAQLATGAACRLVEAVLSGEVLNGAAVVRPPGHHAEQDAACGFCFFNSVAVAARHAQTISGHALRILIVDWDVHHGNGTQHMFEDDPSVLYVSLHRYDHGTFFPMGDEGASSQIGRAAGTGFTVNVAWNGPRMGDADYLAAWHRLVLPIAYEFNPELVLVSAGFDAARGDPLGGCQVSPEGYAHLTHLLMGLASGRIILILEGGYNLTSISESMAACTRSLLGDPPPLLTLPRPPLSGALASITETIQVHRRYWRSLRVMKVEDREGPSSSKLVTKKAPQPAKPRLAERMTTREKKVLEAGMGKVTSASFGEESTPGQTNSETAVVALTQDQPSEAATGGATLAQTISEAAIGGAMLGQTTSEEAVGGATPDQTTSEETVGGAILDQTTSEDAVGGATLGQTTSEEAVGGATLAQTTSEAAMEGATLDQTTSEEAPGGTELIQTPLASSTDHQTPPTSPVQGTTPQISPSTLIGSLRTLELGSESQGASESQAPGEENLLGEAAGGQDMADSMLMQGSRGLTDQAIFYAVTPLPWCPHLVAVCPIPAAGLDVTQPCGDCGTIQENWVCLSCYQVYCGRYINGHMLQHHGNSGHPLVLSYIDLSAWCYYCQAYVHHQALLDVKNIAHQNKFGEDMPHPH
# Conditions: cited from earlier work
structure (smiles),measurement,value
CC(/C=C/C(=O)NO)=C\[C@@H](C)C(=O)c1ccc(N(C)C)cc1 [trichostatin A],inhibition of HDAC6,a broad inhibitor of deacetylases
